# CycPeptMPDB entries from one study

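Lipid, pH, incubation time, direction and concentration are not recorded in the data file. Other peptides of the study may be missing here. Peptides that the database sets to -10, its floor, are left out.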

PAMPA measures passive passage through an artificial lipid membrane. Permeability is given as log10 of P in cm/s; higher (less negative) is more permeable.

SMILES | PAMPA (log10 cm/s)
CC(=O)N1CCC[C@H]1C(=O)N(C)[C@@H](CC(C)C)C(=O)N[C@@H]1C(=O)N(C)[C@@H](CC(C)C)C(=O)N[C@H](CC(C)C)C(=O)N[C@@H](CC(C)C)C(=O)N[C@@H](C)C(=O)N[C@@H](CC(C)C)C(=O)N2CCC[C@H]2C(=O)O[C@@H]1C | -6.69
CC(=O)N1CCC[C@H]1C(=O)N[C@@H]1C(=O)N(C)[C@H](CC(C)C)C(=O)N[C@H](CC(C)C)C(=O)N[C@@H](CC(C)C)C(=O)N(C)[C@H](CC(C)C)C(=O)N[C@H](C)C(=O)N[C@@H](CC(C)C)C(=O)N2CCC[C@@H]2C(=O)O[C@@H]1C | -5.53
CC(=O)N1CCC[C@@H]1C(=O)N(C)[C@H](CC(C)C)C(=O)N[C@@H]1C(=O)N(C)[C@H](CC(C)C)C(=O)N(C)[C@H](CC(C)C)C(=O)N[C@H](CC(C)C)C(=O)N(C)[C@H](C)C(=O)N[C@H](CC(C)C)C(=O)N2CCC[C@@H]2C(=O)O[C@@H]1C | -5.76
CC(=O)N1CCC[C@H]1C(=O)N(C)[C@@H](CC(C)C)C(=O)N[C@@H]1C(=O)N(C)[C@H](CC(C)C)C(=O)N(C)[C@@H](CC(C)C)C(=O)N(C)[C@H](CC(C)C)C(=O)N(C)[C@H](C)C(=O)N[C@H](CC(C)C)C(=O)N2CCC[C@H]2C(=O)O[C@@H]1C | -5.20
CC(=O)N1CCC[C@H]1C(=O)N(C)[C@@H](CC(C)C)C(=O)N[C@@H]1C(=O)N[C@@H](CC(C)C)C(=O)N(C)[C@@H](CC(C)C)C(=O)N(C)[C@@H](CC(C)C)C(=O)N(C)[C@H](C)C(=O)N[C@@H](CC(C)C)C(=O)N2CCC[C@@H]2C(=O)O[C@@H]1C | -5.36
CC(=O)N1CCC[C@@H]1C(=O)N(C)[C@H](CC(C)C)C(=O)N[C@@H]1C(=O)N[C@H](CC(C)C)C(=O)N[C@H](CC(C)C)C(=O)N[C@H](CC(C)C)C(=O)N(C)[C@@H](C)C(=O)N[C@@H](CC(C)C)C(=O)N2CCC[C@H]2C(=O)O[C@@H]1C | -6.09
CC(=O)N1CCC[C@@H]1C(=O)N(C)[C@@H](CC(C)C)C(=O)N[C@@H]1C(=O)N(C)[C@H](CC(C)C)C(=O)N(C)[C@H](CC(C)C)C(=O)N[C@H](CC(C)C)C(=O)N(C)[C@@H](C)C(=O)N[C@@H](CC(C)C)C(=O)N2CCC[C@@H]2C(=O)O[C@@H]1C | -5.32
CC(=O)N1CCC[C@H]1C(=O)N(C)[C@H](CC(C)C)C(=O)N[C@@H]1C(=O)N(C)[C@@H](CC(C)C)C(=O)N(C)[C@@H](CC(C)C)C(=O)N(C)[C@H](CC(C)C)C(=O)N(C)[C@@H](C)C(=O)N[C@H](CC(C)C)C(=O)N2CCC[C@H]2C(=O)O[C@@H]1C | -6.03
CC(=O)N1CCC[C@@H]1C(=O)N(C)[C@@H](CC(C)C)C(=O)N[C@@H]1C(=O)N(C)[C@H](CC(C)C)C(=O)N(C)[C@@H](CC(C)C)C(=O)N(C)[C@H](CC(C)C)C(=O)N(C)[C@H](C)C(=O)N[C@@H](CC(C)C)C(=O)N2CCC[C@@H]2C(=O)O[C@@H]1C | -5.05
CC(=O)N1CCC[C@@H]1C(=O)N(C)[C@@H](CC(C)C)C(=O)N[C@@H]1C(=O)N[C@@H](CC(C)C)C(=O)N[C@@H](CC(C)C)C(=O)N(C)[C@H](CC(C)C)C(=O)N(C)[C@@H](C)C(=O)N[C@@H](CC(C)C)C(=O)N2CCC[C@H]2C(=O)O[C@@H]1C | -6.11
CC(=O)N1CCC[C@H]1C(=O)N[C@@H]1C(=O)N(C)[C@H](CC(C)C)C(=O)N(C)[C@@H](CC(C)C)C(=O)N(C)[C@@H](CC(C)C)C(=O)N[C@@H](CC(C)C)C(=O)N(C)[C@@H](C)C(=O)N[C@@H](CC(C)C)C(=O)N2CCC[C@@H]2C(=O)O[C@@H]1C | -5.07
CC(=O)N1CCC[C@@H]1C(=O)N(C)[C@H](CC(C)C)C(=O)N[C@@H]1C(=O)N[C@@H](CC(C)C)C(=O)N[C@H](CC(C)C)C(=O)N(C)[C@H](CC(C)C)C(=O)N[C@@H](C)C(=O)N[C@@H](CC(C)C)C(=O)N2CCC[C@@H]2C(=O)O[C@@H]1C | -6.93
CC(=O)N1CCC[C@H]1C(=O)N(C)[C@H](CC(C)C)C(=O)N[C@@H]1C(=O)N[C@H](CC(C)C)C(=O)N[C@H](CC(C)C)C(=O)N[C@H](CC(C)C)C(=O)N(C)[C@@H](C)C(=O)N[C@H](CC(C)C)C(=O)N2CCC[C@@H]2C(=O)O[C@@H]1C | -6.01
CC(=O)N1CCC[C@@H]1C(=O)N(C)[C@@H](CC(C)C)C(=O)N[C@@H]1C(=O)N[C@H](CC(C)C)C(=O)N(C)[C@H](CC(C)C)C(=O)N[C@H](CC(C)C)C(=O)N[C@@H](C)C(=O)N[C@H](CC(C)C)C(=O)N2CCC[C@H]2C(=O)O[C@@H]1C | -5.69
CC(=O)N1CCC[C@H]1C(=O)N[C@@H]1C(=O)N(C)[C@H](CC(C)C)C(=O)N[C@H](CC(C)C)C(=O)N[C@H](CC(C)C)C(=O)N[C@@H](CC(C)C)C(=O)N[C@H](C)C(=O)N[C@@H](CC(C)C)C(=O)N2CCC[C@@H]2C(=O)O[C@@H]1C | -6.67
CC(=O)N1CCC[C@@H]1C(=O)N(C)[C@@H](CC(C)C)C(=O)N[C@@H]1C(=O)N(C)[C@@H](CC(C)C)C(=O)N[C@@H](CC(C)C)C(=O)N(C)[C@H](CC(C)C)C(=O)N(C)[C@@H](C)C(=O)N[C@@H](CC(C)C)C(=O)N2CCC[C@H]2C(=O)O[C@@H]1C | -5.43
CC(=O)N1CCC[C@H]1C(=O)N(C)[C@H](CC(C)C)C(=O)N[C@@H]1C(=O)N[C@H](CC(C)C)C(=O)N[C@@H](CC(C)C)C(=O)N[C@@H](CC(C)C)C(=O)N(C)[C@@H](C)C(=O)N[C@@H](CC(C)C)C(=O)N2CCC[C@@H]2C(=O)O[C@@H]1C | -5.44

Extract of 3 entries:

{"smiles": "CC(=O)N1CCC[C@H]1C(=O)N[C@@H]1C(=O)N(C)[C@H](CC(C)C)C(=O)N[C@H](CC(C)C)C(=O)N[C@H](CC(C)C)C(=O)N[C@@H](CC(C)C)C(=O)N[C@H](C)C(=O)N[C@@H](CC(C)C)C(=O)N2CCC[C@@H]2C(=O)O[C@@H]1C", "PAMPA (log10 cm/s)": "-6.67"}
{"smiles": "CC(=O)N1CCC[C@@H]1C(=O)N(C)[C@H](CC(C)C)C(=O)N[C@@H]1C(=O)N(C)[C@H](CC(C)C)C(=O)N(C)[C@H](CC(C)C)C(=O)N[C@H](CC(C)C)C(=O)N(C)[C@H](C)C(=O)N[C@H](CC(C)C)C(=O)N2CCC[C@@H]2C(=O)O[C@@H]1C", "PAMPA (log10 cm/s)": "-5.76"}
{"smiles": "CC(=O)N1CCC[C@H]1C(=O)N[C@@H]1C(=O)N(C)[C@H](CC(C)C)C(=O)N(C)[C@@H](CC(C)C)C(=O)N(C)[C@@H](CC(C)C)C(=O)N[C@@H](CC(C)C)C(=O)N(C)[C@@H](C)C(=O)N[C@@H](CC(C)C)C(=O)N2CCC[C@@H]2C(=O)O[C@@H]1C", "PAMPA (log10 cm/s)": "-5.07"}

Data: CycPeptMPDB; original report Kelly et al. 2021, doi:10.1021/jacs.0c06115.